From paper PMC10709440, “High-throughput ligand profile characterization in novel cell lines expressing seven heterologous insect olfactory receptors for the detection of volatile plant biomarkers” (Scientific Reports, 2023)
Several values for one entry are separate records, joined by “and”; a condition that tells them apart may be missing. Equal entries are not always repeated. Where two headings read alike, the source gives them in different places.

Biological target: T1, Drosophila OR98a (Drosophila melanogaster, UniProt Q9VAZ3)
T1 construct: expressed in transfected cells
T1 sequence (Q9VAZ3 1-397): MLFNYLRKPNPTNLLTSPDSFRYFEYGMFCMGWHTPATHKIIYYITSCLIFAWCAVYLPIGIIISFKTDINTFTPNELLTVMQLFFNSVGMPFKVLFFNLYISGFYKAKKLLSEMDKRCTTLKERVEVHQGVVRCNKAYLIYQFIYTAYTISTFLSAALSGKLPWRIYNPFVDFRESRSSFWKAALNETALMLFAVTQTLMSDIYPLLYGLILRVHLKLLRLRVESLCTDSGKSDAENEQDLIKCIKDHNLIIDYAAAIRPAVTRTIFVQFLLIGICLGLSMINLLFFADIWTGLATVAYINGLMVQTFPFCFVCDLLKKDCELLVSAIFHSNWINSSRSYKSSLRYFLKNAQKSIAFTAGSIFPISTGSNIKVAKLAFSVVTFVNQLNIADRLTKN
T1 sequence (Q9VNB5 1-486 partner): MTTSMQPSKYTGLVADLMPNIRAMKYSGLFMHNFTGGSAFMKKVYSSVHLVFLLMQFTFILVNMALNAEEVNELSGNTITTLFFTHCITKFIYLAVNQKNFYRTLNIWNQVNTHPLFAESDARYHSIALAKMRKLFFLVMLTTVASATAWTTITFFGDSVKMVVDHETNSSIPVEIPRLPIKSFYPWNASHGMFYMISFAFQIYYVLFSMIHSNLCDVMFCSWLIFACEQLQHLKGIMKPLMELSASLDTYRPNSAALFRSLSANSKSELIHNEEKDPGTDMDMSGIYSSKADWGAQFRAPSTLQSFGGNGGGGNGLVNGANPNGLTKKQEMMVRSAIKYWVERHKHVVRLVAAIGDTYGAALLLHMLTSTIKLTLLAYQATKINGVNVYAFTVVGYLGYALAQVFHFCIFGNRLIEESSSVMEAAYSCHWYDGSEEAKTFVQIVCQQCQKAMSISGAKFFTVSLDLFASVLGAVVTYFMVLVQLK
Assay: Calcium ion fluorescence (GCaMP6) assay, OR98a stable HEK293 cell line
Assay type: cell-based
Conditions: for DF norm AVERAGE OR98a: normalized fluorescence change, values below 0.05 threshold given as 0
Description: These VUAA1 normalized ∆F values were used to compare the different receptors and ligands.
The concentration-dependent effect of the reference ligands on their cognate cell lines was examined in more detail. Twelve different ligand concentrations were measured on each cell line in an overall 0.01 μM to 100 μM concentration range with 5 repetitions with three technical replicates each time.
Twelve thousand to 18,000 cells were plated into each well of a black wall, transparent bottom 384-well microplate (Greiner) 48 h or 72 h before the measurements and were simultaneously treated with 1 μg/mL doxycycline. […] The plate has 24 columns, thus we could record responses in up to eight different cell lines in each plate. On the day of the experiment, the growth medium was replaced with 20 µL assay buffer/well (140 mM NaCl, 5 mM KCl, 2 mM CaCl2, 1 mM MgCl2, 5 mM HEPES-Na, 20 mM glucose, pH 7.3, 340 mOsm). […] Baseline fluorescence (F0) was recorded for 5 s, after which 7 µL VOC buffer (140 mM NaCl, 5 mM KCl, 2 mM CaCl2, 1 mM MgCl2, 5 mM HEPES-Na, 31 mM glucose, 0.1% DMSO, pH 7.3, 340 mOsm) was injected into each well in one row and the fluorescence response was recorded for an additional 30 s, at a rate of one read/sec. VOC solutions (VOC buffer with 4× concentration of the final measured VOC concentration, 9 µL/well was injected) were measured on the same wells in a second round with the same protocol. Each individual concentration of a specific VOC sample was recorded in three wells for the same cell line on the same microplate. The raw data were exported in xls file format, F0 and FMAX values, and the fluorescence intensity changes (∆F) were calculated in Excel (Microsoft) (Supplementary file Data summary.xlsx) using the following equation: ΔF=FMAX-F0/F0 (see also Fig. 1C). On each plate, we recorded the response of each cell line to 50 µM VUAA1. The average of these ∆F values of each cell line were used to calculate the VUAA1-normalized values for the rest of the plate, by dividing VOC response ∆F values by the average VUAA1 response ∆F value of the corresponding OR cell line. Each VOC-OR combination was measured three times as technical replicates. […] The average of these replicates were used as one ∆F and VUAA1-normalized ∆F in the following analysis.
In the next rows we tested the reference VOCs (or other VOCs known to activate the corresponding cell lines), in order to test if all cell lines are responsive. The remaining rows were used to test VOCs with unknown effect.
The recorded FMAX, F0, ∆F, VUAA1-normalized ∆F values, as well as the OR name, the name of the tested sample, and the final concentration for each well were copied into supplementary file Data summary.xlsx, that was used to summarize all the plates recorded. Here, the averages of the measurements were calculated for each receptor-VOC-concentration combination.

[1] = HEK293, read-out: Average response
[2] = HEK293, read-out: OR98a Average response (VUAA1-normalized)
[3] = HEK293, read-out: OR98a response (VUAA1-normalized response)
[4] = VOC concentration 0.3 (unit not given)
[5] = VOC concentration 0.6 (unit not given)
[6] = VOC concentration 1.25 (unit not given)
[7] = VOC concentration 2.5 (unit not given)
[8] = VOC concentration 5 (unit not given)
[9] = VOC concentration 10 (unit not given)
[10] = VOC concentration 20 (unit not given)
[11] = VOC concentration 40 (unit not given)
[12] = VOC concentration 60 (unit not given)
[13] = VOC concentration 80 (unit not given)
[14] = VOC concentration 100 (unit not given)

## CC(=O)CCC=C(C)C [6-methyl-5-hepten-2-one]
AVERAGE EC50, from average LOG EC50, N 5
  EC50: 2060 nM
EC50 (fitted parameter), individual biological replicates
  EC50: 1940 nM and 2500 nM and 3520 nM and 1560 nM and 1410 nM
EC50, AVERAGE, arithmetic average of 5 replicate EC50
  EC50: 2180 nM
EC50, FITTED AVERAGE CURVE, fit to the average curve
  EC50: 2220 nM
EC50, OR98a cell line, fitted Hill equation, Hill coefficient constrained to 1, maximal response max 1
  EC50: 2060 nM
[1]
  activation at 1 µM: 10%
  activation at 10 µM: 27%
  activation at 100 µM: 44%
[2]
  activation at 1 µM: 10%
  activation at 10 µM: 27%
  activation at 100 µM: 44%
[3]
  activation at 1 µM: 10%
  activation at 10 µM: 27%
  activation at 100 µM: 44%
HEK293, read-out: VUAA1 normalized MAX response
  Emax: 58%
LOG EC50 (fitted parameter), individual biological replicates, OR98a D-R sheet
  EC50: 1940 nM and 2500 nM and 3520 nM and 1560 nM and 1410 nM
LOG EC50, AVERAGE, average of 5 biological replicates
  EC50: 2060 nM
[4]
  response, AVERAGE: 0.1102
  response, biological replicates: 0.1554 and 0 and 0.1737 and 0.1116
[5]
  response, AVERAGE: 0.09308
  response, biological replicates: 0.06557 and 0.1732 and 0 and 0.1276 and 0.09906
[6]
  response, AVERAGE: 0.2409
  response, biological replicates: 0.2537 and 0.1694 and 0.3406 and 0.1997
[7]
  response, AVERAGE: 0.2802
  response, biological replicates: 0.2818 and 0.3683 and 0.1929 and 0.2904 and 0.2678
[8]
  response, AVERAGE: 0.4033
  response, biological replicates: 0.524 and 0.2746 and 0.428 and 0.3866
[9]
  response, AVERAGE: 0.4921
  response, biological replicates: 0.5182 and 0.6592 and 0.3658 and 0.4172 and 0.5001
[10]
  response, AVERAGE: 0.6119
  response, biological replicates: 0.4846 and 0.7851 and 0.5536 and 0.772 and 0.4641
[11]
  response, AVERAGE: 0.5706
  response, biological replicates: 0.3973 and 0.8542 and 0.4845 and 0.6219 and 0.4952
[12]
  response, AVERAGE: 0.6266
  response, biological replicates: 0.7868 and 0.5652 and 0.7445 and 0.4099
[13]
  response, AVERAGE: 0.4565
  response, biological replicates: 0.4942 and 0.7192 and 0.3421 and 0.3894 and 0.3373
[14]
  response, AVERAGE: 0.5389
  response, biological replicates: 0.7398 and 0.4357 and 0.5086 and 0.4715
Average of 5 biological replicates
  AVERAGE MAX: 0.5775
Concentration 1
  DF norm AVERAGE OR98a: 0.1044
Concentration 10
  DF norm AVERAGE OR98a: 0.2747
Concentration 100
  DF norm AVERAGE OR98a: 0.4431
Fit to the average curve
  MAX, FITTED AVERAGE CURVE: 0.5999
Individual biological replicates
  MAX (fitted parameter): 0.5073 and 0.814 and 0.5036 and 0.5994 and 0.4633
